target: filamentous actin (F-actin) polymerized from rabbit muscle G-actin (rabbit) (UniProt P68135); test: co-sedimentation; high-speed cosedimentation; CLIP-170 fragments 4 μM, phalloidin 0.8 μM, F-actin 0, 1, 2, 4, 8, 12, 16, 24 and 28 μM in PEM50, room temperature; apparent KD from a simple binding equation, 1:1 binding ratio assumed, Bmax set to 1

Kd [µM] | Substance
90 | CLIP-170 CG2 fragment (206-288) (from UniProt P30622 206-288) (domain or fragment)
20 | CLIP-170 CG2-S3 fragment (203-350) (from UniProt P30622 203-350) (domain or fragment)
10 | CLIP-170 S2-CG2-S3 fragment (156-350) (from UniProt P30622 156-350) (domain or fragment)

Reference: article PMC9062740
